Tested on: MCF-7/Adr cells
Test: cells
Conditions: Homo sapiens, NCI/ADR-RES, 72 h, read-out: IC50 of adriamycin

COc1cccc2c1C(=O)c1c(O)c3c(c(O)c1C2=O)C[C@@](O)(C(=O)CO)C[C@@H]3O[C@H]1C[C@H](N)[C@H](O)[C@H](C)O1 [Adriamycin, adriamycin]
IC50: 87.7 ± 15.8 µM

— paper PMC3329467, “Stereoselective Regulations of P-Glycoprotein by Ginsenoside Rh2 Epimers and the Potential Mechanisms From the View of Pharmacokinetics” (PLoS ONE, 2012)
